Consider one compound from ChEMBL document CHEMBL2016545, “Discovery of S-777469: an orally available CB2 agonist as an antipruritic agent” (Bioorg Med Chem Lett, 2012).

The assay is filed under the species Homo sapiens. The experiment in a line: Selectivity ratio of Ki for human CB1 receptor to Ki for human CB2 receptor.

`COCCn1c(C)c(C)s/c1=N\C(=O)C1C(C)(C)C1(C)C`: the Ratio Ki was 425.
